Measurements reported in paper PMC4573928 (Cancer chemotherapy and pharmacology, 2015).

Conditions: cynomolgus monkey, in vivo, iv, 30 mg/kg

Half-life of THU: 3.38 to 4.13 h
Substance: 3, 4, 5, 6-tetrahydrouridine [THU]
